Four molecules from patent publication US20030073850A1, “4-Imidazole derivatives of benzyl and restricted benzyl sulfonamides, sulfamides, ureas, carbamates, and amides and their use” (priority 1998, published 2003) can be followed below.

Chains of the proteins cited; added tags and fusions are not shown.
UniProt P18841, whole entry: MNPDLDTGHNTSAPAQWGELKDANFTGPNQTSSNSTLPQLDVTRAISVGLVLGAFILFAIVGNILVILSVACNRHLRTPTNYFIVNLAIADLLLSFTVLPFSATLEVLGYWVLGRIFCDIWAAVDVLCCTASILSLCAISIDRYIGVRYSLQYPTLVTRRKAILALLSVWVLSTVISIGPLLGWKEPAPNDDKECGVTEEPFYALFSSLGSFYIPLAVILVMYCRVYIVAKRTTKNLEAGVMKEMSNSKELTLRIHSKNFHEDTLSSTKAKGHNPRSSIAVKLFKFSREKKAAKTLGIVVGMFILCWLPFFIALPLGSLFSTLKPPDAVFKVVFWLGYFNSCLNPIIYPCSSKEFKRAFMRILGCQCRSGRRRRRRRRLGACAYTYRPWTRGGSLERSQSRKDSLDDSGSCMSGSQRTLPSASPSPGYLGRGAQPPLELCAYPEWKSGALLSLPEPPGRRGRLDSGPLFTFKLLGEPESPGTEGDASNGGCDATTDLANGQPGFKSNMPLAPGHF
UniProt P23944, whole entry: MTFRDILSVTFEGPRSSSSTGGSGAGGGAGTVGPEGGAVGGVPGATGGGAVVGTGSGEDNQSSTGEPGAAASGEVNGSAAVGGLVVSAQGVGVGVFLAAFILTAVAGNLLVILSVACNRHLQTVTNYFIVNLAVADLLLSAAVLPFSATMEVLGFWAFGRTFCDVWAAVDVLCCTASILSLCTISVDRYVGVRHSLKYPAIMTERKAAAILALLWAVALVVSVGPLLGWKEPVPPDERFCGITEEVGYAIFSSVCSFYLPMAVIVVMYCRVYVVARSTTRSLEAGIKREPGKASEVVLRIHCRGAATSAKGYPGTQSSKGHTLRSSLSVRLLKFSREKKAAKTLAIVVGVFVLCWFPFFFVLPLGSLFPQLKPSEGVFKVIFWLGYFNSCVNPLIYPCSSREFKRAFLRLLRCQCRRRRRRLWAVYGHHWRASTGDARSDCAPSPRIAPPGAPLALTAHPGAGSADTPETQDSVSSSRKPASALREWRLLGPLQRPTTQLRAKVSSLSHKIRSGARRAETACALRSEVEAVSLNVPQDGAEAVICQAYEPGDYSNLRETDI
UniProt P15823, whole entry: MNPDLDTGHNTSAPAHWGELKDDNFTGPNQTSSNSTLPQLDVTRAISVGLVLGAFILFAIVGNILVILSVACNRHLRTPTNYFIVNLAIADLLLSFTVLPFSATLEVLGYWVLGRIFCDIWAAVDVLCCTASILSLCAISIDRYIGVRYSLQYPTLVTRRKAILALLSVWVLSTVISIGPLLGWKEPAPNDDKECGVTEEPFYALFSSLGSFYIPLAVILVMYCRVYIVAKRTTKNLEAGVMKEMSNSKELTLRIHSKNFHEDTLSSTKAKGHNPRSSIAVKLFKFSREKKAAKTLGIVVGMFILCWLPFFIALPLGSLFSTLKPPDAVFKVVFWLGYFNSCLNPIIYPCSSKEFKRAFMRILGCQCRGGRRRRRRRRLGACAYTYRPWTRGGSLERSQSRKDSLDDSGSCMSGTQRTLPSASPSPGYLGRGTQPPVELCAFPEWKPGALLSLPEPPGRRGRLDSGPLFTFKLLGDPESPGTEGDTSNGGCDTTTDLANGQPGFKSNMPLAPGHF

By Ki is commonly meant a dissociation constant, usually derived from enzyme kinetics or from competition with a known ligand. Read a high Ki as lower affinity.

For assay [1], the target named is T1, α1b (hamster receptor expressed in mouse fibroblasts) (Mesocricetus auratus, UniProt P18841).
T1 construct: expressed in transfected cells; host or cells: mouse fibroblasts
Nature of the assay: Radioligand binding, [3H]-prazosin, α1b. As to the method:
(§1) For purposes of discussing a, adrenoceptor subtypes, the IUPHAR convention of using lower case letters to define molecular clones and upper case letters to indicate pharmacologically defined adrenoceptors has been followed. Compounds of formula I were evaluated in radioligand binding assays specific for α1A (rat submaxillary gland), α1b (hamster receptor expressed in mouse fibroblasts) and α1d (rat receptor expressed in mouse fibroblasts) using [^3H]-prazosin as the radioligand as described in Knepper, et al. J. Pharm.

Assay [2] has as its target T2, α1d (rat receptor expressed in mouse fibroblasts) (Rattus norvegicus, UniProt P23944).
T2 construct: expressed in transfected cells; host or cells: mouse fibroblasts
Kind of assay: Radioligand binding, [3H]-prazosin, α1d. On the procedure:
as §1

Another assay concerns the target T3, α1B (rat spleen) (Rattus norvegicus, UniProt P15823).
T3 construct: α1B (rat spleen) and α1D (rat aorta) receptors; from tissue; host or cells: rat spleen
Kind of assay: Agonist tissue response, contraction of rat spleen. As to conditions: read-out: Agonist Tissue Response (pD2) α1B (rat spleen) (converted). Format: biochemical.

Assay [3] deals with T4, α1A (rat submaxillary gland) (Rattus norvegicus, UniProt P43140).
T4 construct: α1A (rat submaxillary gland); from tissue; host or cells: rat submaxillary gland
T4 sequence (P43140 1-466): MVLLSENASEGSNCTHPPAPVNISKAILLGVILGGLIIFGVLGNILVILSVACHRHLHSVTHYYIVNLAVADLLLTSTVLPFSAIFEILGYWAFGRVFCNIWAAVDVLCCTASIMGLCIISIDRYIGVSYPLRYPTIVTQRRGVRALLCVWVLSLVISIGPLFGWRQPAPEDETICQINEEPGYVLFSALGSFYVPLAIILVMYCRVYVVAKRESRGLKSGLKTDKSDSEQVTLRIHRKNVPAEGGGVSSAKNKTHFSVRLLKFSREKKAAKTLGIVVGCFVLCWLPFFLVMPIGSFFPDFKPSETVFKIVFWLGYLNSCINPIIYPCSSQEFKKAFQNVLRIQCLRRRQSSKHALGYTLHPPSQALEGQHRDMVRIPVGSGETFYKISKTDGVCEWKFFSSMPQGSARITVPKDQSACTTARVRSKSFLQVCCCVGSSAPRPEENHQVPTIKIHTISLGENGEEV
Kind of assay: Radioligand binding, [3H]-prazosin, α1A. As to the method:
as §1

A further assay has as its system anesthetized dogs. Kind of assay: Intraurethral pressure (IUP) in anesthetized dogs. It counts as in vivo, dog. Conditions: iv. The source says:
Female Beagle dogs (Marshall Farms, North Rose, N.Y.) greater that 2 years of age and weighing between 12 and 15 kg were used in these studies. At least 2 weeks prior to any agonist dosing, dogs were instrumented for the chronic measurement of arterial blood pressure by implanting a telemetry transducer/transmitter (TA11PA-C40, Data Sciences International, St. Paul, Minn.) into a carotid artery.
On the test day, dogs fasted since the previous afternoon were pre-anesthetized with thiopental sodium 15 mg/kg i.v. (Pentothal™, Abbott) and intubated. Anesthesia was maintained by allowing the dog to spontaneously breathe a mixture of isoflurane (2.5 to 3 volume %) and oxygen delivered by a Narkomed Standard anesthesia system (North American Drager, Telford, Pa.). […]
Dogs with chronic telemetry implants anesthetized as described above were placed in dorsal recumbency and a balloon catheter was inserted into the urethral orifice and advanced approximately 15 cm until the tip was well inside the bladder. […] Increasing iv doses of test agonists were administered and the maximum effect of each dose on IUP was recorded. […]
From the resulting dose response curve, an ED5 value, for the dose causing a maximum increase in IUP of 5 mm Hg, could be estimated. […] A selectivity ratio of MAP ED20 vs. IUP ED, was calculated.

For the molecule `CS(=O)(=O)Nc1cccc2c1CCC=C2c1c[nH]cn1.O=C(O)/C=C\C(=O)O` [Example 47, N-[5-(1H-imidazol-4-yl)-7,8-dihydro-1-naphthalenyl]methanesulfonamide, Maleate], in assay [1], the affinity, expressed as Ki, was 10 µM. In other words, the double-digit micromolar range.

Regarding `CC(=O)Nc1cccc2c1CCCC2c1c[nH]cn1.O=C(O)/C=C\C(=O)O` (stereo not shown) [Example 16, N-[5,6,7,8-tetrahydro-5-(1H-imidazol-4-yl)-1-naphthalenyl]acetamide, Maleate], the Ki in assay [1] and in assay [2] was 10 µM in each case.

On to `CS(=O)(=O)Nc1cccc2c1OCCC2c1c[nH]cn1.O=C(O)/C=C\C(=O)O` (single isomer, unassigned; (+)) [Example 93, (+) N-[4-(1H-imidazol-4-yl)-3,4-dihydro-2H-chromen-8-yl]methanesulfonamide Maleate], for which the results for the Ki in assay [1] and in assay [3] were 10 µM and 0.198 µM, respectively. Also, the EC50 on α1B (rat spleen) is 26.3 µM. In the case of `C=C(c1cccc(NS(C)(=O)=O)c1)c1c[nH]cn1` [Example 92, N-{3-[1-(1H-imidazol-4-yl)vinyl]phenyl}methanesulfonamide], the “Mean Selectivity Ratio MAP ED20/IUP ED5” value in the assay on anesthetized dogs is reported as 1.73.
